# Target: T1, human LTA4 hydrolase (Homo sapiens, UniProt P09960)
# T1 construct: A human LTA4 hydrolase full-length cDNA clone (NM 000895) was purchased; His tag (6xHis of vector pDEST17); made in house; host or cells: Escherichia coli BL21-AI
# T1 sequence (P09960 1-611): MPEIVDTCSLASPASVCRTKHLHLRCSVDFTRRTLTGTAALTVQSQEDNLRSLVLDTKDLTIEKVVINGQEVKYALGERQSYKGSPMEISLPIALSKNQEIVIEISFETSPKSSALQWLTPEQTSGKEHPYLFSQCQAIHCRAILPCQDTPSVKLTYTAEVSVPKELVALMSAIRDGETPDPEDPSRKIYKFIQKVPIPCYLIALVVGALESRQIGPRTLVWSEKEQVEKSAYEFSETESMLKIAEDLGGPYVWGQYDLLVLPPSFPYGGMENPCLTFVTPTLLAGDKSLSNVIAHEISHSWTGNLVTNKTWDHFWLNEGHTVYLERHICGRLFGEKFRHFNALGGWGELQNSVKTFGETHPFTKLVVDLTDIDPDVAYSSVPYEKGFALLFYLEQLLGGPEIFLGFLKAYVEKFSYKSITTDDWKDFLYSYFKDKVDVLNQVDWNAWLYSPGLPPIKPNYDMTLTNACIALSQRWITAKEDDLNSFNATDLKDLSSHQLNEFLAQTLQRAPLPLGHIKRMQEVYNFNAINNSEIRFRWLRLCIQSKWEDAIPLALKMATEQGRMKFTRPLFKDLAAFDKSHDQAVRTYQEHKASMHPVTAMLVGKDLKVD
# Test: In vitro assay testing inhibitory activity against purified recombinant human LTA4 hydrolase (LTB4 formed, LC-MS/MS);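 further: 200 nM enzyme preincubated 10 min at room temperature with serial inhibitor dilutions in pH 8.0 Tris buffer with BSA and 10% DMSO, then 2 µM LTA4 added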
# Type: biochemical
# Settings: recombinant human LTA4 hydrolase 200 nM, LTA4 2 μM; read-out: AvgIC50
substance,measurement,value
(S)-2-[4-(2-thiophen-benzyl)-phenoxymethyl]-pyrrolidine hydrogen chloride salt [Example 117],IC50,< 5 µM

# Source: patent publication US20070078263A1, “BIARYL SUBSTITUTED HETEROCYCLE INHIBITORS OF LTA4H FOR TREATING INFLAMMATION” (deCODE Chemistry, Inc., priority 2005, published 2007)
